The text below walks through data of paper PMC4640659, “Antidepressant- and Anxiolytic-Like Effects of New Dual 5-HT1A and 5-HT7 Antagonists in Animal Models” (PLoS ONE, 2015).

By UniProt entry, the sequences of proteins in these tests, tags left out.
UniProt P34969, whole entry: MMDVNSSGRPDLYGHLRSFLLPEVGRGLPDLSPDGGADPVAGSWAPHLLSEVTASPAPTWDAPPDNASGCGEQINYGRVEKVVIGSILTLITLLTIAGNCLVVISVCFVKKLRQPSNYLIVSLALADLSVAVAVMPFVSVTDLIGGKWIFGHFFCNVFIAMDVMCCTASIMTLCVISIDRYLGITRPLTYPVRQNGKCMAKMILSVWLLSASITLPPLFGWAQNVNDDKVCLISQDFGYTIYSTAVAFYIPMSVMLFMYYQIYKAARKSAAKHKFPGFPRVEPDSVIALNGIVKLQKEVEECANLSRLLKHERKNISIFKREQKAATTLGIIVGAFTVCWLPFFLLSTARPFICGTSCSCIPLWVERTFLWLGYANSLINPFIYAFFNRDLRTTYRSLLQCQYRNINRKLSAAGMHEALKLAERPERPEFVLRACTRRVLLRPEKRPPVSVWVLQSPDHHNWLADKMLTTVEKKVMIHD

SMILES strings stand for the structures.

In this test the target is human serotonin 5-HT7 receptor (Homo sapiens, UniProt P34969). The experiment in a line: cAMP functional assay (LANCE Ultra TR-FRET), CHO-K1 cells. The conditions noted are these: mean of two independent experiments in duplicate. (In general: TR-FRET usually uses a lanthanide donor and a delayed reading to cut background.)

On to `CC1CCN(CC[C@H]2CCCN2S(=O)(=O)c2cccc(O)c2)CC1` [SB 269970, reference compound], for which the “Agonist mode Emax” value was determined as 4%.
